Experimental data reported in US20250163076A1, “SYNTHESIS OF BRUTON'S TYROSINE KINASE INHIBITORS” (JANSSEN PHARMACEUTICA NV, priority 2022, published 2025).

Amino acid sequences for entries named in this document (tags omitted). A change or cut given only in a name is not applied to a line headed by its entry.
UniProt Q06187: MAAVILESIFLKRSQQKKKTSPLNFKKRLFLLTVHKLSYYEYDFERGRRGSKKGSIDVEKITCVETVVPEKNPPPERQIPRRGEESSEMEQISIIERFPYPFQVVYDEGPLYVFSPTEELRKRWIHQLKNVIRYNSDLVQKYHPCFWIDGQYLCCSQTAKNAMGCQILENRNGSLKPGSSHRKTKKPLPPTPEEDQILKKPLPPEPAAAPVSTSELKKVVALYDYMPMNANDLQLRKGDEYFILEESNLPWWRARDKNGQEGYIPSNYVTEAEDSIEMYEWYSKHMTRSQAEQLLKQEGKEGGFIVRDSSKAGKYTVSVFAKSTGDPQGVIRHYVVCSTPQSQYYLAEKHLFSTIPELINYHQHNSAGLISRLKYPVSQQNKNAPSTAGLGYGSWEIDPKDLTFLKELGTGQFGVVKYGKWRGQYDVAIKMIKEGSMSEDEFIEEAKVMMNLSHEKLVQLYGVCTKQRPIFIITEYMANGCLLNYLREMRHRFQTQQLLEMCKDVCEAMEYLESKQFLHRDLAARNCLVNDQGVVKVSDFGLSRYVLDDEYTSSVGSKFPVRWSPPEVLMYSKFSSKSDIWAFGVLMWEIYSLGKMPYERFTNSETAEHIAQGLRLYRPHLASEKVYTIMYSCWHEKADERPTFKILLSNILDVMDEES

Molecular target: BTK (Homo sapiens, UniProt Q06187)
Experiment: BTK covalent inhibition kinetics (KI, kinact, kinact/KI)
Format: biochemical
Conditions: Table 3
Text: Initial structure-activity relationships for a new series of BTK inhibitors exemplified by Compound A (Table 3) have been previously conducted, (Tichenor, et al., ACS Med. Chem. Lett. 2021, 12, 782-790) with an acrylamide electrophile designed to engage in a covalent bond with Cys481. […] Therefore, subsequent optimization of Compound A focused on increasing aqueous solubility and oral bioavailability from solid formulations suitable for preclinical tolerability assessment and advancement into human clinical trials. The development of the structure-activity relationship was conducted by characterizing the non-covalent affinity of each inhibitor for BTK (KI) and the first order rate constant for irreversible covalent bond formation (kinact). The second order rate constant kinact/KI ratio is used to assess the covalent inhibitor potency because it is independent of incubation time and substrate concentrations (Copeland, R. A. Evaluation of Enzyme Inhibitors in Drug Discovery: a Guide for Medicinal Chemists and Pharmacologists; 2nd ed.; Wiley: Hoboken, N.J., 2013).

Compound `C=CC(=O)N1CC[C@@H](NC(=O)c2sc3nccc4c3c2NC(=O)N4c2ccc(Oc3ccccc3)cc2C)C1` [Compound A] has a kinact/KI of 15900 M⁻¹ s⁻¹ and a kinact (average of two independent determinations (±SD)) of 0.000346 ± 2.5e-05 s⁻¹.
